Target: Protein farnesyltransferase (Homo sapiens, UniProt P49354+P49356)
Assay: Concentration required to inhibit recombinant human farnesyltransferase (FTase) catalyzed incorporation of [3H]FPP into recombinant Ras-CVIM.
Format: protein-complex assay
Procedure, shortened: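 Recombinant human FTase transferring [3H]FPP onto recombinant Ras-CVIM, a yeast Ras1/human Ras fusion carrying the K-Ras CaaX box. IC50 is the concentration giving 50% inhibition of label incorporation. Standard errors were typically under ±50% of the mean, and data with n > 2 are given as mean ± SEM.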

CC[C@@]1(c2cccc(Oc3cc([C@](C)(N)c4cncn4C)ccc3C#N)c2)CCCCN(C)C1=O
IC50: 0.06 nM

Reference: ChEMBL document CHEMBL1145986, “Dual protein farnesyltransferase-geranylgeranyltransferase-I inhibitors as potential cancer chemotherapeutic agents” (J Med Chem, 2003)
